{"sequences": {"note": "Amino acid sequences for entries named in this document (tags omitted). A change or cut given only in a name is not applied to a line headed by its entry.", "UniProt P41145": "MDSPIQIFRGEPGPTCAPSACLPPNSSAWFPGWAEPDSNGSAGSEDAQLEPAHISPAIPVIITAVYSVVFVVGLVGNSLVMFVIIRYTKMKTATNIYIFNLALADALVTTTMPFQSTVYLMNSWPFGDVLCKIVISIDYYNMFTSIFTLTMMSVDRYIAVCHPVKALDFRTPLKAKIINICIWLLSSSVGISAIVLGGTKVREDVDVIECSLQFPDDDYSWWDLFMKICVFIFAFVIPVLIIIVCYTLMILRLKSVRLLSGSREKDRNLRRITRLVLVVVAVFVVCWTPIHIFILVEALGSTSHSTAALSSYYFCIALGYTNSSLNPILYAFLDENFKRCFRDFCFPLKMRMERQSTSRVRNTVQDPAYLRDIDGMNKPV", "UniProt P41143": "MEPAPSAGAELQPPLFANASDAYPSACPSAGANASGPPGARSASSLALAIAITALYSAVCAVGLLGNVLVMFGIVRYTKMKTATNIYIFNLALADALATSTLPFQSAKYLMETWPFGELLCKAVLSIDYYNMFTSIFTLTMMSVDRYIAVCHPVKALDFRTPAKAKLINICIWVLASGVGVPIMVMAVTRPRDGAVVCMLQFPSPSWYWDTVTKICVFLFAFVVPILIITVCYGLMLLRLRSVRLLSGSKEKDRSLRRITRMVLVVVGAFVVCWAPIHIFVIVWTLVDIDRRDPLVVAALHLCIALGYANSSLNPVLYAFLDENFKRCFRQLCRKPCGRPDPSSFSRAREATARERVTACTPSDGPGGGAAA", "UniProt P35372": "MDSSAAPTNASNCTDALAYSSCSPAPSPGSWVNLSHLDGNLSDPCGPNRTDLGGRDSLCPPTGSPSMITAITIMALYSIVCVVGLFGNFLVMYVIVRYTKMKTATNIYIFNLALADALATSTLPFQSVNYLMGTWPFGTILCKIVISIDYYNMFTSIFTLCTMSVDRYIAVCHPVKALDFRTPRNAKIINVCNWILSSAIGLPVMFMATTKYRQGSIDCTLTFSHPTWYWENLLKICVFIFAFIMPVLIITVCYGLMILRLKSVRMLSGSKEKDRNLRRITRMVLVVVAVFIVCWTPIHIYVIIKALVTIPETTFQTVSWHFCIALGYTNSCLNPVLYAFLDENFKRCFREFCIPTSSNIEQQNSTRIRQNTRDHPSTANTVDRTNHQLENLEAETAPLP"}, "source": "ChEMBL document CHEMBL1124831", "about": "“Conjugate addition ligands of opioid antagonists. Methacrylate esters and ethers of 6 alpha- and 6 beta-naltrexol” (J Med Chem, 1990)", "target": "Opioid receptors; mu/kappa/delta (Homo sapiens, UniProt P41145+P41143+P35372)", "test": "In vitro binding affinity against Opioid receptors from bovine caudate nucleus determined in presence of [3H]- bremazocine (0.5 nM)", "type": "protein assay, Bos taurus", "details": "target entry is the homologue from another species"}
{"compound": "CCC12CCN(CC3(O)CC3)C(Cc3ccc(O)cc31)C2(C)C", "note": "(stereo unspecified) [BREMAZOCINE]", "values": [{"measurement": "IC50", "value": 0.5, "unit": "nM"}]}
